Measurements: US5712148A (Synaptic Pharmaceutical Corporation, priority 1995, dated 1998)
pIC50: −log10 of the molar value. “And” between values parts separate entries of the source, which are not always exact repeats. Identical values can stand only once.

Sequences of proteins named here, by UniProt entry; tags and fusion partners are left off. A change or cut given only in a name is not applied to a line headed by its entry.
UniProt P48065: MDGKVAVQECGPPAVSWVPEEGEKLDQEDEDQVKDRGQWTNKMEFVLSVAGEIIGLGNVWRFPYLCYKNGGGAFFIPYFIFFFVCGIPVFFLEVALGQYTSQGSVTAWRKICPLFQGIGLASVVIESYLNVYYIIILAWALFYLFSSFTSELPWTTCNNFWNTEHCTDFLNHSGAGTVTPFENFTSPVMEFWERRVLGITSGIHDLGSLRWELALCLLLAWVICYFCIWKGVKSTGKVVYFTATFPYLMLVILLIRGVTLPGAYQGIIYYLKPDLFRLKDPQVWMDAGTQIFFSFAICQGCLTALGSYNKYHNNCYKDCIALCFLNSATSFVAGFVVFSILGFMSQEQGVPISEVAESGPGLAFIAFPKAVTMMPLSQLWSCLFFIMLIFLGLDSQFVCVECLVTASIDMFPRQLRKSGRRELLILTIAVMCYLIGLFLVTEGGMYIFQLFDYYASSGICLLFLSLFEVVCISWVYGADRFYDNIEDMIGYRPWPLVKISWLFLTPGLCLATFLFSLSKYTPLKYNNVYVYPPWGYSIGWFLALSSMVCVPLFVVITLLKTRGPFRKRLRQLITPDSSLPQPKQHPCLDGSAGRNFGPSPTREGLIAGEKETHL

Target: T1, hS1a (human betaine/GABA transporter, hBGT) (Homo sapiens, UniProt P48065)
T1 sequence (P48065 1-614 C10Y): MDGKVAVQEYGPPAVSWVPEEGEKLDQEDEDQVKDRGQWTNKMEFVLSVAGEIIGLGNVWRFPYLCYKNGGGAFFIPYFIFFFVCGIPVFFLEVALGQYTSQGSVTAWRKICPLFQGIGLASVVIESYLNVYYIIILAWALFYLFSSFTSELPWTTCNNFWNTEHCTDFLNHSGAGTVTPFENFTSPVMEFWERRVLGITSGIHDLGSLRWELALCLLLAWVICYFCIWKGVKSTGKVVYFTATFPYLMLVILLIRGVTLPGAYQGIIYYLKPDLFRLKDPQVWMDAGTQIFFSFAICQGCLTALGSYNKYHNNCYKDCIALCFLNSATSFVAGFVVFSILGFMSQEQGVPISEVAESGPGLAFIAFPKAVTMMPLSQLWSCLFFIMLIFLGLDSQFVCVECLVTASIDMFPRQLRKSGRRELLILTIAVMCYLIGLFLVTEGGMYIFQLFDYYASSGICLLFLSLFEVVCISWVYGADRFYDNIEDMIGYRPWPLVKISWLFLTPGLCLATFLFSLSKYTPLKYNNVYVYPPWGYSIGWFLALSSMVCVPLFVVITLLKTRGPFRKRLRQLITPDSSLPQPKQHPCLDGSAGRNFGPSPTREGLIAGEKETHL
Experiment: Inhibition of specific [^3 H]GABA uptake in COS7 (transient) or LMtk- (stable; hS1a-3) cells expressing hS1a
Type: cell-based
Parameters: Translation of a long open reading frame predicts a protein of 614 amino acids with 12 putative transmembrane domains; expressed in transfected cells
Settings: estimated from data for one or two concentrations of inhibitor (Table 1), not corrected for [^3 H]GABA concentration

In the case of `O=C(O)C1CCCNC1` (stereo not shown) [nipecotic acid], the pIC50 was 3.71 and 3.60 to 3.82.
